Source: patent US6716449B2 (priority 2000, dated 2004)

Conditions: in comparison to a 15 mg dose of hydrocodone

CN1CC[C@]23c4c5ccc(O)c4O[C@H]2C(=O)CC[C@H]3[C@H]1C5 [Hydromorphone]
Equianalgesic dose, Calculated Dose: 3.375 mg
